The results in this text go back to ChEMBL document CHEMBL1140704, “Further structure-activity relationships study of hybrid 7-{[2-(4-phenylpiperazin-1-yl)ethyl]propylamino}-5,6,7,8-tetrahydronaphthalen-2-ol analogues: identification of a high-affinity D3-preferring agonist with potent in vivo activity with long duration of action” (J Med Chem, 2008).

Sequences of proteins named here, by UniProt entry; tags and fusion partners are left off.
UniProt P14416, whole entry: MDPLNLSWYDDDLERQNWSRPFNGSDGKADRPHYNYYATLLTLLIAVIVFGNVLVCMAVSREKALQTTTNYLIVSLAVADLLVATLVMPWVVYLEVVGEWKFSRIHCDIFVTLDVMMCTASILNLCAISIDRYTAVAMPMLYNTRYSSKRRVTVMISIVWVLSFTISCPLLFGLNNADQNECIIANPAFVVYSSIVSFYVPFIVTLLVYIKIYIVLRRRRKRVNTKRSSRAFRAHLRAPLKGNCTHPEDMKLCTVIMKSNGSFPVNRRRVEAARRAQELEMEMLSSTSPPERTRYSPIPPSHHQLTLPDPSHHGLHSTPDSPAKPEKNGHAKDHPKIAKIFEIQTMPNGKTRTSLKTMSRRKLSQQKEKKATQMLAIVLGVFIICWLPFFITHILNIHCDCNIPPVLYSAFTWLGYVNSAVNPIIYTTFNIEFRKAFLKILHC

Structures are written as SMILES.

In test [1] the target is T1, D(2) dopamine receptor (Homo sapiens, UniProt P14416). Put plainly: biochemical.
In test [2] the target is T1, D(2) dopamine receptor. Put plainly: Agonist activity at human cloned dopamine D2L receptor expressed in CHO cells assessed as stimulation of [35S]GTPgammaS binding. It counts as functional, cell-based.

In the case of `CCCN(CCN1CCN(c2ccccc2)CC1)C1CCc2c(O)cccc2C1` (stereo in doubt; 6a), the affinity on D(2) dopamine receptor [1], expressed as Ki, was 58.6 nM. In turn, `CCCN(CCN1CCN(c2ccccc2)CC1)C1CCc2c(O)cccc2C1` (stereo in doubt; (+)-25) came in with a Ki on D(2) dopamine receptor [1] of 238 nM.

`CCCN(CCN1CCN(c2ccccc2)CC1)C1CCc2c(O)cccc2C1` (stereo in doubt; (-)-25): the EC50 at D(2) dopamine receptor [2] came out at 2.22 nM.
